Active and inactive are the calls of the source. The rule behind the calls is not given here.
How the values were obtained:
Phospholipase D2 [1] = molecular target: T1, Phospholipase D2 (Homo sapiens, UniProt O14939); assay: Inhibition of GFP-tagged PLD2 in human HEK293 cells assessed as deuterated 1-butanol incorporation pretreated for 5 mins prior to substrate addition measured after 30 mins by mass spectrometry
Phospholipase D1 [2] = molecular target: T2, Phospholipase D1 (Homo sapiens, UniProt Q13393); assay: Inhibition of PLD1 in human Calu-1 cells assessed as deuterated 1-butanol incorporation pretreated for 5 mins prior to substrate addition measured after 30 mins by mass spectrometry
T2 sequence (Q13393 whole entry): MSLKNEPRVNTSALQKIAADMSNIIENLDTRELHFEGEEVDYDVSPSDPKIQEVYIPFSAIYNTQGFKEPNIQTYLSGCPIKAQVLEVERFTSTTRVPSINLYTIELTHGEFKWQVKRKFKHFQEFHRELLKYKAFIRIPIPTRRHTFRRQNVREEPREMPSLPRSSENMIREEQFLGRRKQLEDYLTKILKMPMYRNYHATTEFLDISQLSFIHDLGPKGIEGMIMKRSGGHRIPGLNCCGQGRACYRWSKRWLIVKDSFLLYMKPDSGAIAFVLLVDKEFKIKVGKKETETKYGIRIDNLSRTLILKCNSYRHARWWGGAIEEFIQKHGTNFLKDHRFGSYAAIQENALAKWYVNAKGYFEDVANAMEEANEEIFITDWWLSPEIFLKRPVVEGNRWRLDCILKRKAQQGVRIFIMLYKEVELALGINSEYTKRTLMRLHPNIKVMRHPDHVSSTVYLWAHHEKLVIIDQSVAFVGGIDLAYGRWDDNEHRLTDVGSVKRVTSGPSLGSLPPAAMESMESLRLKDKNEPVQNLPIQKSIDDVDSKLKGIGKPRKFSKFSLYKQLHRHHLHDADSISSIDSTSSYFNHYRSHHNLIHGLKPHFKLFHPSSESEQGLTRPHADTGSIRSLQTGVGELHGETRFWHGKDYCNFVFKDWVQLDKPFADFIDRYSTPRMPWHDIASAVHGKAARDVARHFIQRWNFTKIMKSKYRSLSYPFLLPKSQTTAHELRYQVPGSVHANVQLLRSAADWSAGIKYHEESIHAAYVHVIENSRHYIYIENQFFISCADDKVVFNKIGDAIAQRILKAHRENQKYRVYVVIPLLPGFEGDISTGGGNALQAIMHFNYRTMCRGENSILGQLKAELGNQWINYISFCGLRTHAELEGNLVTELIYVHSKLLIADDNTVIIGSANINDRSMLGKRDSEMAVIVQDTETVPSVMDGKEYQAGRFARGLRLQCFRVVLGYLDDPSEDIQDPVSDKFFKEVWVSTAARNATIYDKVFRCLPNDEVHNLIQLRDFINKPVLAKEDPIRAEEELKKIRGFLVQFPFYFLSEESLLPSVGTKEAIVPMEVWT

By UniProt entry, the sequences of proteins in these tests, tags left out. Where a name states a change or a piece, a line headed by the entry shows the natural chain unless it says otherwise.
UniProt O14939: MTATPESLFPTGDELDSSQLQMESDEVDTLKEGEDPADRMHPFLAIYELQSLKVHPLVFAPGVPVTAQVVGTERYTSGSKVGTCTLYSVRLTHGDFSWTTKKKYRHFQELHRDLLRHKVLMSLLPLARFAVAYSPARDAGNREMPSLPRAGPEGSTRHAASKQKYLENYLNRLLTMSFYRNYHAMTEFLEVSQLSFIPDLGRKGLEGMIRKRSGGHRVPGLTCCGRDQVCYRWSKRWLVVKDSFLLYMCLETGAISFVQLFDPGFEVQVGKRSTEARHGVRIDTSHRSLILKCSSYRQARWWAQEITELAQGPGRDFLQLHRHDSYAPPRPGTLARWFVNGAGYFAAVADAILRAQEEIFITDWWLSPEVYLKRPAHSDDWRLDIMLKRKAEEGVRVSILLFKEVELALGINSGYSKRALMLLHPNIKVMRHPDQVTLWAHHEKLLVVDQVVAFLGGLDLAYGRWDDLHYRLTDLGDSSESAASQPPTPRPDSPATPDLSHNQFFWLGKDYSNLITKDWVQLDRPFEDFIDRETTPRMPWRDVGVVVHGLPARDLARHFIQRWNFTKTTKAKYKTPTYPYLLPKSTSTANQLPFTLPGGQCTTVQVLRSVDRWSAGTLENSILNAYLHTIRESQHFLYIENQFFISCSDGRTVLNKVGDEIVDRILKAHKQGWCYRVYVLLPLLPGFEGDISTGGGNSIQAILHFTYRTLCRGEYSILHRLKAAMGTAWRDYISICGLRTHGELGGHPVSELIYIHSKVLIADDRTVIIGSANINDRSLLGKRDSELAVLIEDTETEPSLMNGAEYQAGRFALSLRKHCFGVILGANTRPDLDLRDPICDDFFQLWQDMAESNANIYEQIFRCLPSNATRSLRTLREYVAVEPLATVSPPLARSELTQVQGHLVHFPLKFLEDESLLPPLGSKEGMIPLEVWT
UniProt P11712, whole entry: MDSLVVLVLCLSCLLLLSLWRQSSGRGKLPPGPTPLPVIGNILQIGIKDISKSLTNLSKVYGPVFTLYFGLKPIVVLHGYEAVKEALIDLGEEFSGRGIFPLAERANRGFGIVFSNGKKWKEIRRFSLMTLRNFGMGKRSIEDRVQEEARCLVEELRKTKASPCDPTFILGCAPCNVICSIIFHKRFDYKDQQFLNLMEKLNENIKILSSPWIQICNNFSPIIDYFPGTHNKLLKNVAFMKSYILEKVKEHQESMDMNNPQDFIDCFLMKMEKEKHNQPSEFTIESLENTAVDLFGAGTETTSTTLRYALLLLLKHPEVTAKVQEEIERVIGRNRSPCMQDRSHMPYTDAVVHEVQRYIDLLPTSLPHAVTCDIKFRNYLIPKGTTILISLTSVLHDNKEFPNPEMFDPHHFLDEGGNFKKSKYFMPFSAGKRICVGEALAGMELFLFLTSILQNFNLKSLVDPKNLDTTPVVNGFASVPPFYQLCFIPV
UniProt P08684, whole entry: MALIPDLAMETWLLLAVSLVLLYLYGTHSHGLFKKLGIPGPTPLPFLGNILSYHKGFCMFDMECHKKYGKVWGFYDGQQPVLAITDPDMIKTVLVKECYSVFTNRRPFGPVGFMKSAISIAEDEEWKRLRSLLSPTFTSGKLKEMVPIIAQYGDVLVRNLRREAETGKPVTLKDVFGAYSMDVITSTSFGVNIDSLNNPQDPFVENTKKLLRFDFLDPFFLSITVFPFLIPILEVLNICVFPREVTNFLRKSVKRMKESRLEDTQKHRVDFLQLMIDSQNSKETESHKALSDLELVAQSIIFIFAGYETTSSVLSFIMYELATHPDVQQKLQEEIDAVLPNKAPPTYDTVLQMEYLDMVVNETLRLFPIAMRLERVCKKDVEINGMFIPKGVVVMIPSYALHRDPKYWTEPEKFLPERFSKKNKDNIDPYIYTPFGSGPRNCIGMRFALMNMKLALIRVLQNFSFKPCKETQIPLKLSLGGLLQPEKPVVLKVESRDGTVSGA
UniProt Q12809: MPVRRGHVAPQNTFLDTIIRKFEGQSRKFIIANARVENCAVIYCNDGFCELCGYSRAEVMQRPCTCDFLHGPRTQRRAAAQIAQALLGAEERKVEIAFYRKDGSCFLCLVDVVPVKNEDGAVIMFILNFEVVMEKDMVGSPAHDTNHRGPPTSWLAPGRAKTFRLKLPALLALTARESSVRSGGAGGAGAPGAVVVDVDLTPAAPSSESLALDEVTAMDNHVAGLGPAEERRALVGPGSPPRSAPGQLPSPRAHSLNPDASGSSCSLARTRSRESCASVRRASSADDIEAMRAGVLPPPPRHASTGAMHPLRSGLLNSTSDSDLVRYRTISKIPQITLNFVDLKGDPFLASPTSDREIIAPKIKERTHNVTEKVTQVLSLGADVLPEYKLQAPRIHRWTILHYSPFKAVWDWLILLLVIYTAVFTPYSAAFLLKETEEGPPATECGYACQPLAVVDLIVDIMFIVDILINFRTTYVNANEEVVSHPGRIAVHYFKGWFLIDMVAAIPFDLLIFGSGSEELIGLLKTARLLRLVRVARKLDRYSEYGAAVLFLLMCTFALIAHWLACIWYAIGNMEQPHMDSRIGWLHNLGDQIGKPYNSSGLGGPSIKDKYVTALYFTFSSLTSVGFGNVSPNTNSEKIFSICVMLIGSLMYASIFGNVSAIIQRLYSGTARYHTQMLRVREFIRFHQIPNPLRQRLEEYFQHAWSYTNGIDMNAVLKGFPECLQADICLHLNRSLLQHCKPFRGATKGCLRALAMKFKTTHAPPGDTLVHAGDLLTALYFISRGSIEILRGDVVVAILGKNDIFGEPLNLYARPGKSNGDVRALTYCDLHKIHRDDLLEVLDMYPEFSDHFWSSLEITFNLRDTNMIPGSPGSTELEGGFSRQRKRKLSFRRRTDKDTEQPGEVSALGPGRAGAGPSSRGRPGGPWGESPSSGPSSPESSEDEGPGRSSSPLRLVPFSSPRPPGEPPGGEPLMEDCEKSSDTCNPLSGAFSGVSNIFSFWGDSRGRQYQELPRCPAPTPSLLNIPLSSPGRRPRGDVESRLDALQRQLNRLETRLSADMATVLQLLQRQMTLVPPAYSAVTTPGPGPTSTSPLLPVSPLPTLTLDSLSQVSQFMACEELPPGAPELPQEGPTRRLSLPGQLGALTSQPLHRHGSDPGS

Cytochrome P450 2C9 = Cytochrome P450 2C9 (Homo sapiens, UniProt P11712)
Cytochrome P450 3A4 = Cytochrome P450 3A4 (Homo sapiens, UniProt P08684)
[3] = molecular target: Voltage-gated inwardly rectifying potassium channel KCNH2 (Homo sapiens, UniProt Q12809)
Phospholipase D2 [4] = molecular target: T1, Phospholipase D2
Phospholipase D1 [5] = molecular target: T2, Phospholipase D1
Phospholipase D2 [6] = molecular target: T1, Phospholipase D2; settings: U-87MG ATCC
[7] = molecular target: T3, Phospholipase D1 (Homo sapiens) (UniProt Q13393); settings: U-87MG ATCC
T3 sequence (whole entry): T2 sequence (Q13393 whole entry)

[8] = molecular target: T3, Phospholipase D1 (Homo sapiens); settings: Calu-1, 20 uM

Compound	IC50 (Phospholipase D2 [1]) [nM]	IC50 (Phospholipase D1 [2]) [nM]	IC50 (Cytochrome P450 2C9) [nM]	IC50 (Cytochrome P450 3A4) [nM]	IC50 [3] [nM]	IC50 (Phospholipase D2 [4]) [nM]	IC50 (Phospholipase D1 [5]) [nM]	inhibition (Phospholipase D2 [6])	inhibition [7]	inhibition [8]
Cc1cccc(N2CNC(=O)C23CCN(C[C@H](C)NC(=O)c2ccc(Br)cc2)CC3)c1	20	6	13300	6800	> 20000	84	48	Dose-dependent effect	Dose-dependent effect	
O=C(NCCN1CCC2(CC1)C(=O)NCN2c1cccc(F)c1)c1ccc2ccccc2c1										Active
